Sequences of proteins named here, by UniProt entry; tags and fusion partners are left off. A change or cut given only in a name is not applied to a line headed by its entry.
UniProt Q92793, whole entry: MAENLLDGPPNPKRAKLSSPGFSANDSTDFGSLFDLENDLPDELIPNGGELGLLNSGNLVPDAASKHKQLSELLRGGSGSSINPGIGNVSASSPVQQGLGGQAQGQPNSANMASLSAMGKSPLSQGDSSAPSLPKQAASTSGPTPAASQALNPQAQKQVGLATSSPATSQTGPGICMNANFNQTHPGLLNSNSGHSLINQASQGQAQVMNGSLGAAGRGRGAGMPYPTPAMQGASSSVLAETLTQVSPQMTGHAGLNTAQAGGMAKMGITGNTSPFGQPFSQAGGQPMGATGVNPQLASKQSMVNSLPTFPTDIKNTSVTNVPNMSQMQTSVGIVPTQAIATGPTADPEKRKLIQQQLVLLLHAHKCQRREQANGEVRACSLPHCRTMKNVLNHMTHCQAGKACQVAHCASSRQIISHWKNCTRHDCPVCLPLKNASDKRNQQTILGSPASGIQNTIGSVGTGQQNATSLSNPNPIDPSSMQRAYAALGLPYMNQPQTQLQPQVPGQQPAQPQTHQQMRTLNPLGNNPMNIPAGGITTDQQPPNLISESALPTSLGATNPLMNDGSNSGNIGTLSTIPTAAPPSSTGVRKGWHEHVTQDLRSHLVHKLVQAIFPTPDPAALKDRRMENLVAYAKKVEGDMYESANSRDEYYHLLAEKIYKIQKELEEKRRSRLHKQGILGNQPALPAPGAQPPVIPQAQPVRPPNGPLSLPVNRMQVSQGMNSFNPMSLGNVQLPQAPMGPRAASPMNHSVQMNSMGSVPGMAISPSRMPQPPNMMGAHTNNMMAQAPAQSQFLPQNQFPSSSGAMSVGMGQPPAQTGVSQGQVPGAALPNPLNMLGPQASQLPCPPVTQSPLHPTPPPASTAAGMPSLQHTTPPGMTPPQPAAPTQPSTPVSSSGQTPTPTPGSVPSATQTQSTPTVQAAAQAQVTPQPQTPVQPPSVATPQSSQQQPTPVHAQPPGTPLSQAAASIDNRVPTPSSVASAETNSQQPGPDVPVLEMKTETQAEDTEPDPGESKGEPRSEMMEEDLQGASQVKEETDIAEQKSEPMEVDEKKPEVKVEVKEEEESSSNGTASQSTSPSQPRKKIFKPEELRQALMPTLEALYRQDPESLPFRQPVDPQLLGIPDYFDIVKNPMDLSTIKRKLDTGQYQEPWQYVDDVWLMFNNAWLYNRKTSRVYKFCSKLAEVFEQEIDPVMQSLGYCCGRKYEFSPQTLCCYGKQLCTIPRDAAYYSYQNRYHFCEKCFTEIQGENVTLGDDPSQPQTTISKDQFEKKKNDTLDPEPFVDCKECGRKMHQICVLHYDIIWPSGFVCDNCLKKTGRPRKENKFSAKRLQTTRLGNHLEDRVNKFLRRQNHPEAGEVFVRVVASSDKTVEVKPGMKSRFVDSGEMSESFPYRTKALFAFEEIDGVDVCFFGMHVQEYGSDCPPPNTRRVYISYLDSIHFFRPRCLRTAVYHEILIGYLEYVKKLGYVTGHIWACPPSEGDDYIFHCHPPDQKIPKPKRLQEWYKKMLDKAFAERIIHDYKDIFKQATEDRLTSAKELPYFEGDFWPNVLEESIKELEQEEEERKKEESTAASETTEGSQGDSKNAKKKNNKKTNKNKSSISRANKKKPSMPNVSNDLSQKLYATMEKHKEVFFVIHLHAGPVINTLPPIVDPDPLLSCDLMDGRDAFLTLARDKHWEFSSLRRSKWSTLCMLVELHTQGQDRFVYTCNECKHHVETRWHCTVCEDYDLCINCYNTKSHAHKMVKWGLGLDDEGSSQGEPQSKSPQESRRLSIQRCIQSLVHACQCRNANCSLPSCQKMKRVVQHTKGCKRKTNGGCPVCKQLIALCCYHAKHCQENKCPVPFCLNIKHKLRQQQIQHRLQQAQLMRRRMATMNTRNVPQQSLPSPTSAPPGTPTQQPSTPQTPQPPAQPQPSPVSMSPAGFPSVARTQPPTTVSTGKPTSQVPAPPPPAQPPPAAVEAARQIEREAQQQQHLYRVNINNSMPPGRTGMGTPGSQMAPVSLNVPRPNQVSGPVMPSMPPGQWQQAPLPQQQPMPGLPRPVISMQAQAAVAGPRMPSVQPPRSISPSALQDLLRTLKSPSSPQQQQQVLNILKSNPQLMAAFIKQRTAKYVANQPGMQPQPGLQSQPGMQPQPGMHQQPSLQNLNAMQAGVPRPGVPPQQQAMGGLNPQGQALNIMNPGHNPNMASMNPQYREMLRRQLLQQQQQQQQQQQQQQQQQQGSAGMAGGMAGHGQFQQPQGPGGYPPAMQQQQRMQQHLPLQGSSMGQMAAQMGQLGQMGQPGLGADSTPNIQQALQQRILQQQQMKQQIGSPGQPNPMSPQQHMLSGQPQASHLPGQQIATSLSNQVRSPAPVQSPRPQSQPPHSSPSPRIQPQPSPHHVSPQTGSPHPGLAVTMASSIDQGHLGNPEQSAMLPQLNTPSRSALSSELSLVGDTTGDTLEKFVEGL
UniProt Q09472, whole entry: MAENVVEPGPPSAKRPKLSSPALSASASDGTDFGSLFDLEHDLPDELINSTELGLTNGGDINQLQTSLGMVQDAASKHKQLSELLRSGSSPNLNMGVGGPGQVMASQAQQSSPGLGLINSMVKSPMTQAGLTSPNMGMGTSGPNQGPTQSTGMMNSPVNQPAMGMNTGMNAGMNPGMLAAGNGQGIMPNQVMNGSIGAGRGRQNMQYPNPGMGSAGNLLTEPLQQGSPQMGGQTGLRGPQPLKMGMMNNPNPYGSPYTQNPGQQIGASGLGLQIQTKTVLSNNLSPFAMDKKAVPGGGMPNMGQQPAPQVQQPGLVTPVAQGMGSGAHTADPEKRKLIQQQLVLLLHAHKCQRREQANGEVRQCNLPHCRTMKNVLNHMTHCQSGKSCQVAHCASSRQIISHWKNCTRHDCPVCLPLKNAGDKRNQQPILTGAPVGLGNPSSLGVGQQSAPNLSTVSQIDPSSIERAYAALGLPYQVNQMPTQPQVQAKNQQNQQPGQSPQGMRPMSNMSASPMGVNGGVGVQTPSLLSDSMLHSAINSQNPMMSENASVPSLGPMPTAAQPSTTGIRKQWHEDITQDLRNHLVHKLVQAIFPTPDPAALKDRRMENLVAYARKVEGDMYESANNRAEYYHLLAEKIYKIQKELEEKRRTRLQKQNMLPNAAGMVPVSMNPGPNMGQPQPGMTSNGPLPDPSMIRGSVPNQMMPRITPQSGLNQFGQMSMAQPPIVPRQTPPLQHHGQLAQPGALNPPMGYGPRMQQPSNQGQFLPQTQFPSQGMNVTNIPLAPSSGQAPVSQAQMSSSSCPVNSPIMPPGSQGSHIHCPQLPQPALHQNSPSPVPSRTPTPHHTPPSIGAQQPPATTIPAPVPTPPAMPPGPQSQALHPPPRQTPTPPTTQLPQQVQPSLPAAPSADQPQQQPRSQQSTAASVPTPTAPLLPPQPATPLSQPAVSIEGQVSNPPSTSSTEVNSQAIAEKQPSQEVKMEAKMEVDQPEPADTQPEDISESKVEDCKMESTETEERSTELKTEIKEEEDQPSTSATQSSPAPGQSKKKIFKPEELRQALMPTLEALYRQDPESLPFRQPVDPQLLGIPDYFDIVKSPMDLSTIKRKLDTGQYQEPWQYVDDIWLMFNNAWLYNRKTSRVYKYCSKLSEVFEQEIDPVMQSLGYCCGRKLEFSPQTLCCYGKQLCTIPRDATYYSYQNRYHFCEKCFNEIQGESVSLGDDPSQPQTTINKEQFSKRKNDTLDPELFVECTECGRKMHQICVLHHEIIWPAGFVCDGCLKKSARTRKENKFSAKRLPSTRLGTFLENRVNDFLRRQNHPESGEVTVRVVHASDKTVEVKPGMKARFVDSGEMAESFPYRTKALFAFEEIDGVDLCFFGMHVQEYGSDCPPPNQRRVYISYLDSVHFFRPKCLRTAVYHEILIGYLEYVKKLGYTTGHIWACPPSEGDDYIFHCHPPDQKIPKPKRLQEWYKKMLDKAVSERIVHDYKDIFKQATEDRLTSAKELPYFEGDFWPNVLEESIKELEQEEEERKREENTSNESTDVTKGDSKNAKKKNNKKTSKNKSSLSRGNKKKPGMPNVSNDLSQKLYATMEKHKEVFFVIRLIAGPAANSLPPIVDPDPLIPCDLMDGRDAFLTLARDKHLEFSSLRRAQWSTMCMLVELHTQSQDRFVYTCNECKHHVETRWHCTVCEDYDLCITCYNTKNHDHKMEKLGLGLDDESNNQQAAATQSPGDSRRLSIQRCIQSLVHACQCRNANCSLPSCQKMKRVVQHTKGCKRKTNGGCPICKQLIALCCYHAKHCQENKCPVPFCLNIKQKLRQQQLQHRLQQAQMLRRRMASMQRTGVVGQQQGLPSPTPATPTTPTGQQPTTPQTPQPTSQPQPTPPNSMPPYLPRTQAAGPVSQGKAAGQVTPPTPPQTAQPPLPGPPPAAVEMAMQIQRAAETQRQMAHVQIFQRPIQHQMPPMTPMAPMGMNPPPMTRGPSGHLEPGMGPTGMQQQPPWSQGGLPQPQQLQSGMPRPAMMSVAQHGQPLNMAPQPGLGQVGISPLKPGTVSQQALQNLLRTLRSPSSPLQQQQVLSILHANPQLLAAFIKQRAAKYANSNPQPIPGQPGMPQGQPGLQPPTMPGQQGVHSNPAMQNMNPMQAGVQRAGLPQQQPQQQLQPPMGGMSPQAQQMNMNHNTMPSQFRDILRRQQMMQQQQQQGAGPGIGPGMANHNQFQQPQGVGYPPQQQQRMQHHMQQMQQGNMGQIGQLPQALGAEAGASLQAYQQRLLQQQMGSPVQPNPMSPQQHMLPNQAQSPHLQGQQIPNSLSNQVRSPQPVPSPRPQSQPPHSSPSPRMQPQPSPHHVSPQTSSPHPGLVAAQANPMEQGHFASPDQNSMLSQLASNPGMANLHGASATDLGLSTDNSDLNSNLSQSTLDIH
UniProt Q92831: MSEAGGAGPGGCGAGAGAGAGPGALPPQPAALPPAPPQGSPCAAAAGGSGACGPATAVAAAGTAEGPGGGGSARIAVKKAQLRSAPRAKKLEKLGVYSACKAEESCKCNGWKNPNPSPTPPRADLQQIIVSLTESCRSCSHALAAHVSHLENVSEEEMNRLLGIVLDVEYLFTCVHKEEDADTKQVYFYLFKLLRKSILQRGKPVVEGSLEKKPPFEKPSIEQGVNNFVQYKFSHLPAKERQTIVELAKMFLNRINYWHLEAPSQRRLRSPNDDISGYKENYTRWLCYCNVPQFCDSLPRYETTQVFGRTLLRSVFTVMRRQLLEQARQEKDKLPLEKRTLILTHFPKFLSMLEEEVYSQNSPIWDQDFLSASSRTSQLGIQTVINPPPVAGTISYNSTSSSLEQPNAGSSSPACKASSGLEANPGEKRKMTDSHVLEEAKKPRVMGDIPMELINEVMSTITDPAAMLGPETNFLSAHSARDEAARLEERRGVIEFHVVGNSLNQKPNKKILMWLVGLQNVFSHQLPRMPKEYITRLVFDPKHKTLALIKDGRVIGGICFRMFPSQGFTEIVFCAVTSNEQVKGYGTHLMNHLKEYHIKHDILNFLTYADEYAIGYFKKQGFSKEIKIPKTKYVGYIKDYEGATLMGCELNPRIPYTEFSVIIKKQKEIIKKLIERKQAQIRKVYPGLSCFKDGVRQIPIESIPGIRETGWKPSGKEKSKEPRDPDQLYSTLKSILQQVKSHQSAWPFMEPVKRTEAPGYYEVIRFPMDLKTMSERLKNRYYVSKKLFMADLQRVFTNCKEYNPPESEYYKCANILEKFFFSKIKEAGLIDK
UniProt Q92830: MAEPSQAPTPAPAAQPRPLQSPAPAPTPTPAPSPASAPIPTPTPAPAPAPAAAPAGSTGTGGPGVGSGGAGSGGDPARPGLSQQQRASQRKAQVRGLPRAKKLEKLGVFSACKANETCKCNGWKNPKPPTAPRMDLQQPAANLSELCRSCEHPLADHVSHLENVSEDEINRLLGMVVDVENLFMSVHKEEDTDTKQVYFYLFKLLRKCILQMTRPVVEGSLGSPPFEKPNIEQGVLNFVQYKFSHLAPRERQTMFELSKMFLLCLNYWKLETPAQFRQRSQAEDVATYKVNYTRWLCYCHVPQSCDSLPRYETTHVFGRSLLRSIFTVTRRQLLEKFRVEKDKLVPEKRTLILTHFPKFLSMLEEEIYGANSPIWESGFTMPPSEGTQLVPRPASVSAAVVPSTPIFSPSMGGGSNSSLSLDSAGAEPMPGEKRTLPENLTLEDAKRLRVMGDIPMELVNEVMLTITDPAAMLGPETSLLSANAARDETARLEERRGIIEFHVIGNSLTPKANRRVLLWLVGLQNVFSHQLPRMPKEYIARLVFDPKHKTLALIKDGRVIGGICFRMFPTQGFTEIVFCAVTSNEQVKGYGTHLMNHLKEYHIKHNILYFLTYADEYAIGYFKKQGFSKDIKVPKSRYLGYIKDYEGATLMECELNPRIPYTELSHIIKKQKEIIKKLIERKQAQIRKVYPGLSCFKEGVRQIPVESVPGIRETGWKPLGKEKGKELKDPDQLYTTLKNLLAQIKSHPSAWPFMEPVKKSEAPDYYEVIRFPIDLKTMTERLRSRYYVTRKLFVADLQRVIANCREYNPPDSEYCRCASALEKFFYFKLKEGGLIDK

According to ChEMBL document CHEMBL5380781, “Recent Advances on Small-Molecule Bromodomain-Containing Histone Acetyltransferase Inhibitors” (J Med Chem, 2023):

Experiments:
CREB-binding protein = CREB-binding protein (Homo sapiens, UniProt Q92793); assay: Binding affinity to CBP bromodomain (unknown origin) assessed as dissociation constant
[1] = biological target: Histone acetyltransferase p300 (Homo sapiens, UniProt Q09472)
[2] = biological target: Histone acetyltransferase KAT2A/KAT2B (Homo sapiens, UniProt Q92831+Q92830); assay: Inhibition of PCAF bromodomain/GCN5 bromodomain (unknown origin); assay type: protein assay

| IC50 [2] [nM] | SMILES | pKd (CREB-binding protein) | pKd [1] |
| --- | --- | --- | --- |
|  | COC1CCC(n2c([C@H]3CCCC(=O)N3c3ccc(F)c(F)c3)nc3cc(-c4c(C)noc4C)ccc32)CC1 (stereo partly drawn) | 8.77 | 8.89 |
| 13 | CC(C)C[C@H]1C[C@@H](Nc2cnn(C)c(=O)c2Cl)CN(C)C1 |  |  |

pKd: −log10 of the molar value.
